# Legend:
# Amino acid sequences for entries named in this document (tags omitted).
# UniProt O70526, whole entry, looked up: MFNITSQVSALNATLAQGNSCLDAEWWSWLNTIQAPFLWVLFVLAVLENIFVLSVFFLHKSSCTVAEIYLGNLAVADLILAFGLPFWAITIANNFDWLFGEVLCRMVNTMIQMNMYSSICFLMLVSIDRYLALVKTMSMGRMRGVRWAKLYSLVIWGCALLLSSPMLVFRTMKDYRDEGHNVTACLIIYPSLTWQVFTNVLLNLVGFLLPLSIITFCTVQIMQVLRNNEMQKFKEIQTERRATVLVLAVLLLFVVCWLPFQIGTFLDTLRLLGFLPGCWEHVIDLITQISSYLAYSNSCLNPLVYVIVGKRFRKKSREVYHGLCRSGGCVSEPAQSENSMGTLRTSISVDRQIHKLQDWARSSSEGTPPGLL
# BK2 receptor = BK2 receptor (Cavia porcellus, UniProt O70526); assay: competition with tritiated bradykinin (3H-BK) for BK2 receptor sites in guinea pig ileum; format: binding; settings: guinea pig ileum homogenate, 80 pM 3H-BK, 90 min, 25° C., pH 6.8
# [1] = tested on: bradykinin-induced writhing response; assay: inhibition of the writhing response induced in mice by exogenous administration of bradykinin; format: in vivo, mice (male CD-1); settings: bradykinin 0.5 mg/kg i.p. after PGE2
compound,measurement,setting,value
CCCC(=O)N(Cc1ccc(Nc2ccnc3cc(Cl)ccc23)cc1)C1CCN(Cc2ccccc2)CC1,IC50,BK2 receptor,2.5 µM
same,% Inhibition at 30 mg/kg i.p.,[1],37%
